Experimental data from article PMC9124651, “High-performance thin-layer chromatography in combination with an acetylcholinesterase-inhibition bioassay with pre-oxidation of organothiophosphates to determine neurotoxic effects in storm, waste, and surface water” (Analytical and Bioanalytical Chemistry, 2022).

Chains of the proteins cited; added tags and fusions are not shown. Residues count along the entry.
UniProt O42275, 24-633: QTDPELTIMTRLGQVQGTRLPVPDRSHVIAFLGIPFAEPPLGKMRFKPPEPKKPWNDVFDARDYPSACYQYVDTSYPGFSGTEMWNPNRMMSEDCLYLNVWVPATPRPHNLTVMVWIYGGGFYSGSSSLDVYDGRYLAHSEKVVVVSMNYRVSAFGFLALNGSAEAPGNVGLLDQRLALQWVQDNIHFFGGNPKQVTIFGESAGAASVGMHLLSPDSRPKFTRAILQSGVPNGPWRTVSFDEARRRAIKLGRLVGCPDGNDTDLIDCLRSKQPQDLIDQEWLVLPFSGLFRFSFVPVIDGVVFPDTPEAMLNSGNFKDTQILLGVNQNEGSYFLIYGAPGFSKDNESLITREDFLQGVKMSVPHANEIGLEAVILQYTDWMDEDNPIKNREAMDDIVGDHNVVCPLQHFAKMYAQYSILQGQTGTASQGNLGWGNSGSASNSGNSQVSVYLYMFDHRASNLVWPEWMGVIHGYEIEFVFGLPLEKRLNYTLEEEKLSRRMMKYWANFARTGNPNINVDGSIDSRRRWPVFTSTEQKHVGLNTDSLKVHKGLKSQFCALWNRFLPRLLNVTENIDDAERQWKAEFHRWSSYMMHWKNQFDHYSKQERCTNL

Biological target: T1, AChE from electric eel (Electrophorus electricus) (Electrophorus electricus, UniProt O42275)
T1 construct: purchased Sigma-Aldrich GmbH (Steinheim, Germany)
Test: AChE-inhibition microtiter assay (Ellman, 96-well, with or without NBS oxidation)
Format: biochemical
Description: Stock solutions (1 mg/mL) of NBS and ascorbic acid were each freshly prepared before the test and then diluted to 10 µg/mL and 100 µg/mL, respectively. The assay was performed with modifications according to Ellman’s method. OTPs, oxons, water, and methanol blanks (15 µL) were each mixed with 15 µL of NBS (10 µg/mL) in a 96-well plate. After an incubation at room temperature for 5 min, the reaction was stopped by adding 15 µL ascorbic acid (100 µg/mL). For the test setup without oxidation, OTPs, oxons, water, and methanol blanks (15 µL) were mixed with 30 µL water per well. Subsequently, 200 µL of a DTNB solution (0.15 mM), buffered in TRIS/HCl at a pH of 7.4, was added to each well of both test setups. Then, 20 µL of an AChE solution (0.5 U/mL), also buffered in TRIS/HCl at a pH of 7.4, was added. An incubation at 30 °C for 30 min without shaking followed. An ATCL solution (0.8 mM) was freshly prepared with water and 30 µL per well was added after incubation. […] The absorbance of the yellow-colored anion was photometrically measured at 405 nm (Sunrise Remote, Tecan Group AG, Männedorf, Schweiz).
Dilution series with eight concentrations of the three OTPs and related oxons (Tab. S1) were freshly prepared from stock solutions (1–10 mg/mL) in methanol. […] The 95% confidence intervals of the curves and the standard deviations of the mean AChE activity were also calculated. […]

## CCOP(=O)(OCC)Oc1nc(Cl)c(Cl)cc1Cl [Chlorpyrifos-oxon]
  IC50: 23 nM
